Values quoted from earlier work in US5665700A, “Pharmaceutical formulations” (Skua Investments Limited, priority 1994, dated 1997).

Details: in vivo; cited from earlier work

Substance | LD50 [mg/kg]
POE(50) stearic acid | > 25000
POE(100) stearic acid | 25000
